In US20060189679A1, “C10 cyclopropyl ester substituted taxane compositions” (priority 2005, published 2006):

What was measured:
[1] = tested on: HT-29 human colon tumor xenografts; assay: HT-29 human tumor xenograft studies in nude mice
[2] = tested on: DLD-1 resistant colon carcinoma cells (overexpresses p-glycoprotein); assay: In vitro cytotoxic activity (MTT, 72 hr); format: cell-based, human; settings: DLD-1 in vitro
[3] = HT29-e80, 80 mg/kg PO Q7D × 3, listed as compound 3102
[4] = HT29-e105, 120 mg/kg PO Q7D × 3
[5] = HT29-e105, 150 mg/kg PO Q7D × 3
[6] = HT29-e105, 180 mg/kg PO Q7D × 3

SMILES: CC(=O)O[C@@]12CO[C@@H]1C[C@H](O)[C@@]1(C)C(=O)[C@H](OC(=O)C3CC3)C3=C(C)[C@@H](OC(=O)[C@H](O)[C@@H](NC(=O)OCC(C)C)c4ccco4)C[C@@](O)([C@@H](OC(=O)c4ccccc4)C12)C3(C)C (some centres unmarked) [Compound 3102]
- # Death NTR ([1]; HT29-e51, 30 mg/kg IV Q4D × 4): 0
- # Death TR ([1]; HT29-e51, 30 mg/kg IV Q4D × 4): 1
- Max. % BW Loss; Day ([1]; HT29-e51, 30 mg/kg IV Q4D × 4, Day 19): −16.2%;
- Max. % BW Loss; Day ([1]; HT29-e51, 30 mg/kg IV Q4D × 4, Day 19, listed as compound 3102): −16.2%
- # Death TR ([1]; HT29-e51, 30 mg/kg IV Q4D × 4, listed as compound 3102): one
- # Death NTR ([1]; HT29-e76, 30 mg/kg PO Q4D × 4): 0
- # Death TR ([1]; HT29-e76, 30 mg/kg PO Q4D × 4): 0
- #CR ([1]; HT29-e76, 30 mg/kg PO Q4D × 4): 0
- #PR ([1]; HT29-e76, 30 mg/kg PO Q4D × 4): 1
- #SD/PD ([1]; HT29-e76, 30 mg/kg PO Q4D × 4): 0
- MDS to 1.0 g ± SEM (n) ([1]; HT29-e76, 30 mg/kg PO Q4D × 4): 27.9 ± 1.0 (5) days
- Max. % BW Loss; Day ([1]; HT29-e76, 30 mg/kg PO Q4D × 4, Day 17): −7.4%;
- Max. % BW Loss; Day ([1]; HT29-e76, 30 mg/kg PO Q4D × 4, Day 17, listed as compound 3102): −7.4%
- MDS to 1.0 g ± SEM (n) ([1]; HT29-e76, 30 mg/kg PO Q4D × 4, listed as compound 3102): 27.9 days
- # Death NTR ([1]; HT29-e76, 45 mg/kg PO Q4D × 4): 0
- # Death TR ([1]; HT29-e76, 45 mg/kg PO Q4D × 4): 0
- #CR ([1]; HT29-e76, 45 mg/kg PO Q4D × 4): 1
- #PR ([1]; HT29-e76, 45 mg/kg PO Q4D × 4): 3
- #SD/PD ([1]; HT29-e76, 45 mg/kg PO Q4D × 4): 2
- Max. % BW Loss; Day ([1]; HT29-e76, 45 mg/kg PO Q4D × 4, Day 14): −12.8%;
- # Death NTR ([1]; HT29-e76, 60 mg/kg PO Q4D × 4): 0
- # Death TR ([1]; HT29-e76, 60 mg/kg PO Q4D × 4): 0
- #CR ([1]; HT29-e76, 60 mg/kg PO Q4D × 4): 0
- #PR ([1]; HT29-e76, 60 mg/kg PO Q4D × 4): 5
- #SD/PD ([1]; HT29-e76, 60 mg/kg PO Q4D × 4): 0
- Max. % BW Loss; Day ([1]; HT29-e76, 60 mg/kg PO Q4D × 4, Day 17): −17.8%;
- MDS to 1.0 g ± SEM (n) ([1]; HT29-e76, 60 mg/kg PO Q4D × 4, one mouse (n=1)): 14.0 ± (1) days
- MDS to 1.0 g ± SEM (n) ([1]; HT29-e76, 60 mg/kg PO Q4D × 4, one mouse (n=1), listed as compound 3102): 14.0 days
- # Death NTR ([1]; HT29-e79, 50 mg/kg PO Q4D × 4): 0
- # Death TR ([1]; HT29-e79, 50 mg/kg PO Q4D × 4): 0
- #CR ([1]; HT29-e79, 50 mg/kg PO Q4D × 4): 0
- #PR ([1]; HT29-e79, 50 mg/kg PO Q4D × 4): 4
- #SD/PD ([1]; HT29-e79, 50 mg/kg PO Q4D × 4): 2
- Max. % BW Loss; Day ([1]; HT29-e79, 50 mg/kg PO Q4D × 4, Day 10): −0.9%;
- #PR ([1]; HT29-e79, 50 mg/kg PO Q4D × 4, listed as compound 3102): 4/6
- # Death NTR ([1]; HT29-e79, 60 mg/kg PO Q4D × 4): 0
- # Death TR ([1]; HT29-e79, 60 mg/kg PO Q4D × 4): 0
- #CR ([1]; HT29-e79, 60 mg/kg PO Q4D × 4): 0
- #PR ([1]; HT29-e79, 60 mg/kg PO Q4D × 4): 6
- #SD/PD ([1]; HT29-e79, 60 mg/kg PO Q4D × 4): 0
- Max. % BW Loss; Day ([1]; HT29-e79, 60 mg/kg PO Q4D × 4, Day 17): −6.5%;
- #PR ([1]; HT29-e79, 60 mg/kg PO Q4D × 4, listed as compound 3102): 6/6
- # Death NTR ([1]; HT29-e79, 70 mg/kg PO Q4D × 4): 0
- # Death TR ([1]; HT29-e79, 70 mg/kg PO Q4D × 4): 0
- #CR ([1]; HT29-e79, 70 mg/kg PO Q4D × 4): 0
- #PR ([1]; HT29-e79, 70 mg/kg PO Q4D × 4): 6
- #SD/PD ([1]; HT29-e79, 70 mg/kg PO Q4D × 4): 0
- Max. % BW Loss; Day ([1]; HT29-e79, 70 mg/kg PO Q4D × 4, Day 10): −6.1%;
- #PR ([1]; HT29-e79, 70 mg/kg PO Q4D × 4, listed as compound 3102): 6/6
- # Death NTR ([1]; HT29-e80, 60 mg/kg PO Q7D × 3): 0
- # Death TR ([1]; HT29-e80, 60 mg/kg PO Q7D × 3): 0
- #CR ([1]; HT29-e80, 60 mg/kg PO Q7D × 3): 0
- #PR ([1]; HT29-e80, 60 mg/kg PO Q7D × 3): 0
- #SD/PD ([1]; HT29-e80, 60 mg/kg PO Q7D × 3): 3
- MDS to 1.0 g ± SEM (n) ([1]; HT29-e80, 60 mg/kg PO Q7D × 3): 45.0 ± 6.8 (3) days
- Max. % BW Loss; Day ([1]; HT29-e80, 60 mg/kg PO Q7D × 3, Day 14): −3.8%;
- # Death NTR ([1]; HT29-e80, 80 mg/kg PO Q7D × 3): 0
- # Death TR ([1]; HT29-e80, 80 mg/kg PO Q7D × 3): 0
- #CR ([1]; HT29-e80, 80 mg/kg PO Q7D × 3): 2
- #PR ([1]; HT29-e80, 80 mg/kg PO Q7D × 3): 3
- #SD/PD ([1]; HT29-e80, 80 mg/kg PO Q7D × 3): 1
- Max. % BW Loss; Day ([1]; HT29-e80, 80 mg/kg PO Q7D × 3, Day 14): −0.9%;
- #CR [1, 3]: 2/6
- #PR [1, 3]: 3/6
- # Death NTR ([1]; HT29-e80, 100 mg/kg PO Q7D × 3): 0
- # Death TR ([1]; HT29-e80, 100 mg/kg PO Q7D × 3): 0
- #CR ([1]; HT29-e80, 100 mg/kg PO Q7D × 3): 0
- #PR ([1]; HT29-e80, 100 mg/kg PO Q7D × 3): 5
- #SD/PD ([1]; HT29-e80, 100 mg/kg PO Q7D × 3): 1
- Max. % BW Loss; Day ([1]; HT29-e80, 100 mg/kg PO Q7D × 3, Day 17): −9.2%;
- Max. % BW Loss; Day ([1]; HT29-e80, 100 mg/kg PO Q7D × 3, Day 17, listed as compound 3102): ≤ 10%
- #PR ([1]; HT29-e80, 100 mg/kg PO Q7D × 3, listed as compound 3102): 5/6
- # Death NTR ([1]; HT29-e105, 15 mg/kg PO Q7D × 3): 0
- # Death TR ([1]; HT29-e105, 15 mg/kg PO Q7D × 3): 0
- MDS to 1.0 g ± SEM (n) ([1]; HT29-e105, 15 mg/kg PO Q7D × 3): 27.7 ± 4.6 days
- # Death NTR ([1]; HT29-e105, 30 mg/kg PO Q4D × 4): 0
- # Death TR ([1]; HT29-e105, 30 mg/kg PO Q4D × 4): 0
- MDS to 1.0 g ± SEM (n) ([1]; HT29-e105, 30 mg/kg PO Q4D × 4): 35.6 ± 5.8 days
- Max. % BW Loss; Day ([1]; HT29-e105, 30 mg/kg PO Q4D × 4, Day 17): −2.7%;
- # Death NTR ([1]; HT29-e105, 30 mg/kg PO Q7D × 3): 0
- # Death TR ([1]; HT29-e105, 30 mg/kg PO Q7D × 3): 0
- MDS to 1.0 g ± SEM (n) ([1]; HT29-e105, 30 mg/kg PO Q7D × 3): 31.4 ± 5.8 days
- # Death NTR ([1]; HT29-e105, 40 mg/kg PO Q4D × 4): 0
- # Death TR ([1]; HT29-e105, 40 mg/kg PO Q4D × 4): 0
- MDS to 1.0 g ± SEM (n) ([1]; HT29-e105, 40 mg/kg PO Q4D × 4): 44.9 days
- Max. % BW Loss; Day ([1]; HT29-e105, 40 mg/kg PO Q4D × 4, Day 17): −9.1%;
- # Death NTR ([1]; HT29-e105, 50 mg/kg PO Q4D × 4): 0
- # Death TR ([1]; HT29-e105, 50 mg/kg PO Q4D × 4): 0
- MDS to 1.0 g ± SEM (n) ([1]; HT29-e105, 50 mg/kg PO Q4D × 4): 49.2 days
- Max. % BW Loss; Day ([1]; HT29-e105, 50 mg/kg PO Q4D × 4, Day 17): −9.7%;
- # Death NTR ([1]; HT29-e105, 60 mg/kg PO Q4D × 4): 0
- # Death TR ([1]; HT29-e105, 60 mg/kg PO Q4D × 4): 0
- Max. % BW Loss; Day ([1]; HT29-e105, 60 mg/kg PO Q4D × 4, Day 17): −13.5%;
- # Death NTR ([1]; HT29-e105, 60 mg/kg PO Q7D × 3): 0
- # Death TR ([1]; HT29-e105, 60 mg/kg PO Q7D × 3): 1
- MDS to 1.0 g ± SEM (n) ([1]; HT29-e105, 60 mg/kg PO Q7D × 3): 48.8 days
- Max. % BW Loss; Day ([1]; HT29-e105, 60 mg/kg PO Q7D × 3, Day 6): −5.9%;
- # Death NTR ([1]; HT29-e105, 70 mg/kg PO Q4D × 4): 0
- # Death TR ([1]; HT29-e105, 70 mg/kg PO Q4D × 4): 0
- Max. % BW Loss; Day ([1]; HT29-e105, 70 mg/kg PO Q4D × 4, Day 17): −13.2%;
- # Death NTR ([1]; HT29-e105, 80 mg/kg PO Q4D × 4): 0
- # Death TR ([1]; HT29-e105, 80 mg/kg PO Q4D × 4): 0
- Max. % BW Loss; Day ([1]; HT29-e105, 80 mg/kg PO Q4D × 4, Day 17): −15.4%;
- # Death NTR ([1]; HT29-e105, 90 mg/kg PO Q7D × 3): 0
- # Death TR ([1]; HT29-e105, 90 mg/kg PO Q7D × 3): 0
- Max. % BW Loss; Day ([1]; HT29-e105, 90 mg/kg PO Q7D × 3, Day 6): −5.6%;
- # Death NTR [1, 4]: 0
- # Death TR [1, 4]: 0
- Max. % BW Loss; Day ([1]; HT29-e105, 120 mg/kg PO Q7D × 3, Day 20): −13.3%;
- # Death NTR [1, 5]: 0
- # Death TR [1, 5]: 0
- Max. % BW Loss; Day ([1]; HT29-e105, 150 mg/kg PO Q7D × 3, Day 24): −17.3%;
- # Death NTR [1, 6]: 0
- # Death TR [1, 6]: 2
- Max. % BW Loss; Day ([1]; HT29-e105, 180 mg/kg PO Q7D × 3, Day 24): −27.4%;
- potency compared to both paclitaxel and docetaxel in killing DLD-1 tumor cells [2]: at least 5 fold
